Laboratory results as given in patent publication US9890152B2 (Genentech, Inc., priority 2012, dated 2018).

By UniProt entry, the sequences of proteins in these tests, tags left out. Residues count along the entry.
UniProt P00533, 25-1210 T790M/L858R limits assumed: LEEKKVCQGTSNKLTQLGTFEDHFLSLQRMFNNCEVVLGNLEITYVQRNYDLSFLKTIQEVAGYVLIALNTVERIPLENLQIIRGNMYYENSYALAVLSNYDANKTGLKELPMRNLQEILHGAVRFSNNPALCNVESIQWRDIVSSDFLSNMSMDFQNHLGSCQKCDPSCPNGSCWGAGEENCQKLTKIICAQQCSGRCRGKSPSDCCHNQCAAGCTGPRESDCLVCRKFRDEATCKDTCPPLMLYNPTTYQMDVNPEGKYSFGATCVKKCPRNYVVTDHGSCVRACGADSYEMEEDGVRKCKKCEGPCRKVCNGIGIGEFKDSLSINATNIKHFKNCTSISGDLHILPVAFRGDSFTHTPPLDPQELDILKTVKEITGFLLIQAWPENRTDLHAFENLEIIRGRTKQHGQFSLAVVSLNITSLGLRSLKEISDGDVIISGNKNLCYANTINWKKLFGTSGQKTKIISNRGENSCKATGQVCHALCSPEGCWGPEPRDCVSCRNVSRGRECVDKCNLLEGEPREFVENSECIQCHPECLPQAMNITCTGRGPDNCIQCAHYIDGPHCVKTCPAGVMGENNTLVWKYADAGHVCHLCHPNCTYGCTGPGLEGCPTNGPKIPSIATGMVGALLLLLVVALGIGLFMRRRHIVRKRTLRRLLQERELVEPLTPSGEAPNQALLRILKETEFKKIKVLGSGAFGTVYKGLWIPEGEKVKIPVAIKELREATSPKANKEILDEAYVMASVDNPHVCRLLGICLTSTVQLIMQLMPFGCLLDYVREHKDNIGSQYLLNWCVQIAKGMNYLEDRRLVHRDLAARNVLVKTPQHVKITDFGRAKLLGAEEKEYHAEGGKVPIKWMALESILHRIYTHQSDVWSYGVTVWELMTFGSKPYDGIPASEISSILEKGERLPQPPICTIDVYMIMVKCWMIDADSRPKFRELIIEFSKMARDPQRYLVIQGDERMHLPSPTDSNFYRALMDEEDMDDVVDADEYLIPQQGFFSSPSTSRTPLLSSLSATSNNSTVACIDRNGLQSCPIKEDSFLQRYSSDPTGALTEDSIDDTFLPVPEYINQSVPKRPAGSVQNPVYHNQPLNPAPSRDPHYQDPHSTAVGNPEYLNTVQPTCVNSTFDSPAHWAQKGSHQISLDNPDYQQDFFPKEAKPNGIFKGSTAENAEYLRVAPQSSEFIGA

Target: EGFR T790M L858R (Homo sapiens, UniProt P00533, L858R/T790M)
Test: biochemical
Details: EGFR(T790M/L858R) Ki (μM), 5 μM ATP, 30 min, room temperature; apparent Ki (Morrison) converted by Cheng-Prusoff, Km of ATP 1.3 μM

In order of falling Ki:
1. Cc1nc2cnc(Nc3ccnc(N4CC[C@@H]5OC(=O)N[C@@H]5C4)n3)cc2n1C(C)C (racemic) [Example 498, (±)-(cis)-5-(4-((1-Isopropyl-2-methyl-1H-imidazo[4,5-c]pyridin-6-yl)amino)pyrimidin-2-yl)hexahydrooxazolo [4,5-c]pyridin-2(3H)-one]  0.694 µM
2. Cc1nc2cnc(Nc3ccnc(-c4cnn(C5CCNC5)c4)n3)cc2n1C(C)C (racemic) [Example 398, (±)-1-isopropyl-2-methyl-N-(2-(1-(pyrrolidin-3-yl)-1H-pyrazol-4-yl)pyrimidin-4-yl)-1H-imidazo[4,5-c]pyridin-6-amine]  0.27 µM
3. Cc1nc2cnc(Nc3ccnc(-c4cnn(S(=O)(=O)CC5COCCO5)c4)n3)cc2n1C(C)C (racemic) [Example 404, (±)-N-(2-(1-(((1,4-dioxan-2-yl)methyl)sulfonyl)-1H-pyrazol-4-yl)pyrimidin-4-yl)-1-isopropyl-2-methyl-1H-imidazo[4,5-c] pyridin-6-amine]  0.0879 µM
4. Cc1nc2cnc(Nc3ccnc(-n4cnc(C(C)O)c4)n3)cc2n1C(C)C (racemic) [Example 332, (+/−)-1-(1-(4-((1-Isopropyl-2-methyl-1H-imidazo[4,5-c]pyridin-6-yl)amino)pyrimidin-2-yl)-1H-imidazol-4-yl)ethanol]  0.0825 µM
5. CCC1COCCN1c1nccc(Nc2cc3c(cn2)nc(C)n3C(C)C)n1 (racemic) [Example 419, (±)-N-(2-(3-ethylmorpholino)pyrimidin-4-yl)-1-isopropyl-2-methyl-1H-imidazo[4,5-c]pyridin-6-amine]  0.0723 µM
6. Cc1nc2cnc(Nc3ccnc(NC(C)C(C)(C)C(N)=O)n3)cc2n1C(C)C (racemic) [Example 417, (±)-3-((4-((1-isopropyl-2-methyl-1H-imidazo[4,5-c]pyridin-6-yl)amino)pyrimidin-2-yl)amino)-2,2-dimethylbutanamide]  0.0441 µM
7. Cc1nc2cnc(Nc3ccnc(-c4cnn(S(=O)(=O)C5CCOC5)c4)n3)cc2n1C(C)C (racemic) [Example 406, (±)-1-isopropyl-2-methyl-N-(2-(1-((tetrahydrofuran-3-yl)sulfonyl)-1H-pyrazol-4-yl)pyrimidin-4-yl)-1H-imidazo[4,5-c]pyridin-6-amine]  0.0137 µM
8. Cc1nc2cnc(Nc3ccnc(N4CC[C@H](O)[C@H](F)C4)n3)cc2n1C(C)C (racemic) [Example 505, (±)-3-Fluoro-1-(4-((1-isopropyl-2-methyl-1H-imidazo [4,5-c]pyridin-6-yl)amino)pyrimidin-2-yl)piperidin-4-ol]  0.0116 µM
9. CCC(C)n1cnc2cnc(Nc3ccnc(N4CCC(OC)CC4)n3)cc21 (racemic) [Example 153, ± (1-sec-butyl-1H-imidazo[4,5-c]pyridin-6-yl)-[2-(4-methoxypiperidin-1-yl)pyrimidin-4-yl]amine]  0.0091 µM
10. COC1CCN(c2nccc(Nc3cc4c(cn3)nc([C@@H](C)O)n4[C@H](C)C(F)(F)F)n2)CC1F (mixture of isomers) [Example 297, (R)-1-[6-[2-(cis-3-Fluoro-4-methoxypiperidin-1-yl)pyrimidin-4-ylamino]-1-((R)-2,2,2-trifluoro-1-methylethyl)-1H-imidazo[4,5-c]pyridin-2-yl]ethanol]  0.00725 µM
11. CC(O)c1nc2cnc(Nc3ccnc(-c4cnn(S(=O)(=O)C5CC5)c4)n3)cc2n1C(C)C (racemic) [Example 294, (±)-1-{6-[2-(1-Cyclopropanesulfonyl-1H-pyrazol-4-yl)pyrimidin-4-ylamino]-1-isopropyl-1H-imidazo[4,5-c]pyridin-2-yl}ethanol]  0.00351 µM
12. CC(C)n1cc(C(=O)NC2CCOCC2)c2cnc(Nc3ccnc(N4CCC(O)C(C)(C)C4)n3)cc21 (racemic) [Example 385, (±)-6-((2-(4-hydroxy-3,3-dimethylpiperidin-1-yl)pyrimidin-4-yl)amino)-l-isopropyl-N-(tetrahydro-2H-pyran-4-yl)-1H-pyrrolo[3,2-c] pyridine-3-carboxamide]  0.0027 µM
13. CCC(C)n1cc(C(=O)NC2CCOCC2)c2cnc(Nc3ccnc(N4CCC(O)C(C)(C)C4)n3)cc21 (mixture of isomers) [Example 384, 1-(sec-butyl)-6-((2-(4-hydroxy-3,3-dimethylpiperidin-1-yl)pyrimidin-4-yl)amino)-N-(tetrahydro-2H-pyran-4-yl)-1H-pyrrolo[3,2-c]pyridine-3-carboxamide]  0.00238 µM
14. CCC(C)n1cc(C(=O)NC2CCOC2)c2cnc(Nc3ccnc(N4CCC(O)C(C)(C)C4)n3)cc21 (mixture of isomers) [Example 373, 1-(sec-butyl)-6-((2-(4-hydroxy-3,3-dimethylpiperidin-1-yl)pyrimidin-4-yl)amino)-N-(tetrahydrofuran-3-yl)-1H-pyrrolo[3,2-c]pyridine-3-carboxamide]  0.00178 µM
15. CCC(C)n1cc(C(=O)N[C@H]2CCOC[C@H]2F)c2cnc(Nc3ccnc(N4CC[C@@H](O)[C@@H](F)C4)n3)cc21 (mixture of isomers) [Example 637, 1-(sec-butyl)-6-((2-((3S,4R)-3-fluoro-4-hydroxypiperidin-1-yl)pyrimidin-4-yl)amino)-N-((3SR, 4SR)-3-fluorotetrahydro-2H-pyran-4-yl)-1H-pyrrolo[3,2-c]pyridine-3-carboxamide]  0.00169 µM
16. CCC(C)n1cc(C(=O)NC2CCN(C3COC3)CC2)c2cnc(Nc3ccnc(N4CC[C@H](O)[C@H](F)C4)n3)cc21 (mixture of isomers) [Example 389, 1-(sec-butyl)-6-((2-((3R,4S)-3-fluoro-4-hydroxypiperidin-1-yl)pyrimidin-4-yl)amino)-N-(1-(oxetan-3-yl)piperidin-4-yl)-1H-pyrrolo[3,2-c]pyridine-3-carboxamide]  0.00163 µM
17. CCC(C)n1cc(N2CCCC2=O)c2cnc(Nc3ccnc(N4CC[C@@H](O)[C@@H](F)C4)n3)cc21 (mixture of isomers) [Example 641, 1-(1-(sec-butyl)-6-((2-((3S,4R)-3-fluoro-4-hydroxypiperidin-1-yl)pyrimidin-4-yl)amino)-1H-pyrrolo[3,2-c]pyridin-3-yl)pyrrolidin-2-one]  0.00142 µM
18. CCC(C)n1cc(C(=O)NC2CCN(C3COC3)CC2)c2cnc(Nc3ccnc(-c4cnn(S(=O)(=O)C5CC5)c4)n3)cc21 (racemic) [Example 371, (±)-1-(sec-butyl)-6-((2-(1-(cyclopropylsulfonyl)-1H-pyrazol-4-yl)pyrimidin-4-yl)amino-N-(1-(oxetan-3-yl)piperidin-4-yl)-1H-pyrrolo[3,2-c]pyridine-3-carboxamide]  0.00137 µM
19. CC(C)n1cc(C(=O)N[C@@H]2CCN(C3COC3)C[C@@H]2F)c2cnc(Nc3ccnc(-c4cnn(S(=O)(=O)C5CC5)c4)n3)cc21 (racemic) [Example 372, (±)-6-((2-(1-(cyclopropylsulfonyl)-1H-pyrazol-4-yl)pyrimidin-4-yl)amino)-N-((cis)-3-fluoro-1-(oxetan-3-yl)piperidin-4-yl)-1-isopropyl-1H-pyrrolo[3,2-c]pyridine-3-carboxamide]  0.00111 µM
20. CCC(C)n1cc(C(=O)NC2CCOC2)c2cnc(Nc3ccnc(-c4cnn(S(=O)(=O)C5CC5)c4)n3)cc21 (mixture of isomers) [Example 382, 1-(sec-butyl)-6-((2-(1-(cyclopropylsulfonyl)-1H-pyrazol-4-yl)pyrimidin-4-yl)amino)-N-(tetrahydrofuran-3-yl)-1H-pyrrolo [3,2-c]pyridine-3-carboxamide]  0.000573 µM
